Assay results as given in ChEMBL document CHEMBL4373696, “Probing the Existence of a Metastable Binding Site at the β2-Adrenergic Receptor with Homobivalent Bitopic Ligands” (J Med Chem, 2019).

By UniProt entry, the sequences of proteins in these tests, tags left out.
UniProt P08588, whole entry: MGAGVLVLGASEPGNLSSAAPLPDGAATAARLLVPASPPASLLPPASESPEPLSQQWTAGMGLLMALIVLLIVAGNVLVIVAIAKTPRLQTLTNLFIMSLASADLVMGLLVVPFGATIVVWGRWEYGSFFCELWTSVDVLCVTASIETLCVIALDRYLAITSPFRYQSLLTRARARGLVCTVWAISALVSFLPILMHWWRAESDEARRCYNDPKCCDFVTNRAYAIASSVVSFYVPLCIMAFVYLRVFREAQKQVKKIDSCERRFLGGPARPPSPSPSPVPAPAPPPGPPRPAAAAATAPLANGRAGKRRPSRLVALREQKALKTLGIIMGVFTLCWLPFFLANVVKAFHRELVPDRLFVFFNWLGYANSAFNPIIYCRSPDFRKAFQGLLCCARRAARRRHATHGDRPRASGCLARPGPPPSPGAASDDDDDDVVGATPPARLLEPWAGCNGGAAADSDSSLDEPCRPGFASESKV

Assays:
[1] = target: T1, Beta-1 adrenergic receptor (Homo sapiens, UniProt P08588); test: Antagonist activity at beta1 adrenergic receptor (unknown origin) stably expressed in HEK293 cell membranes assessed as inhibition of isoproterenol-induced cAMP production preincubated for 15 mins followed by isoproterenol addition and measured after 30 mins by TR-FRET assay; assay type: cell-based
Method in brief: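 Membranes from HEK293 cells stably overexpressing β1AR; ligand's blockade of isoproterenol-stimulated cAMP production measured; pIC50 as mean ± SEM from 3-8 independent experiments run in duplicate.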

[2] = target: T1, Beta-1 adrenergic receptor; test: Displacement of [3H]DHA from beta1 adrenergic receptor (unknown origin) stably expressed in HEK293 cell membranes measured after 90 mins by scintillation counting analysis

| IC50 [1] | Ki [2] | SMILES |
| --- | --- | --- |
| 5.89 nM |  | C=CCc1ccccc1OC[C@@H](O)CNC(C)C |
|  | 2.82 nM | C=CCc1ccccc1OCC(O)CNC(C)C (racemic) [ALPRENOLOL] |
